Data published in publication PMC3198402 (PLoS ONE, 2011).

Target: A*0301 (Homo sapiens, UniProt P04439)
Experiment: biochemical
Format: binding

CSCC[C@H](NC(=O)[C@H](CCCCN)NC(=O)[C@H](Cc1c[nH]c2ccccc12)NC(=O)[C@H](CC(C)C)NC(=O)[C@H](CC(N)=O)NC(=O)[C@H](Cc1ccc(O)cc1)NC(=O)[C@H](CCSC)NC(=O)[C@@H](N)C(C)C)C(=O)N[C@@H](CCCCN)C(=O)O [YFV A3 15898]
Kd: 4 nM
